Measured values as given in patent US20210077420A1, “Methods of Treatment of Gout” (priority 2017, published 2021).

Assay: Solubility enhancement of MSU crystals in aqueous NaCl solution (Example 1)
Conditions: 2.5 mL enhancer + 2.5 mL NaCl solution, 16 h; control (water only) = 100%

Row | % vs control | Compound
1 | 249% | OCc1ccccc1 [Benzyl alcohol]
2 | 126% | C[S+](C)[O-] [Dimethyl sulfoxide]
3 | 202% | CCCCCCCCCCCCCC(=O)OC(C)C [Isopropyl myristate]
4 | 286% | CCCCCCCC/C=C\CCCCCCCC(=O)O [Oleic acid]
